{
  "sequences": {"note": "Sequences of proteins named here, by UniProt entry; tags and fusion partners are left off. Residues count along the entry.", "UniProt Q07820, 172-327": "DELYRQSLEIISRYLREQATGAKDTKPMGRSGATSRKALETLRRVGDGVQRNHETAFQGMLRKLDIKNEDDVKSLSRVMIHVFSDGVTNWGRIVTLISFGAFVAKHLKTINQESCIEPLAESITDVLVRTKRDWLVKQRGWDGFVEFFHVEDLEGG"},
  "source": "paper PMC9904277",
  "about": "“Rational design of Harakiri (HRK)-derived constrained peptides as BCL-xL inhibitors” (Chemical Communications (Cambridge, England), 2023)",
  "key": {"MCL-1 [1]": {"biological_target": "T1, MCL-1 (Homo sapiens, UniProt Q07820)", "assay": "biochemical"}, "MCL-1 [2]": {"biological_target": "T1, MCL-1", "settings": "IC50 HRK/MCL-1 divided by IC50 HRK/BCL-xL"}},
  "data": [
    {"smiles": "CSCC[C@H](NC(=O)[C@@H](NC(=O)[C@H](CCCNC(=N)N)NC(=O)[C@H](CCC(N)=O)NC(=O)[C@H](Cc1c[nH]cn1)NC(=O)[C@H](CC(C)C)NC(=O)[C@H](CCC(=O)O)NC(=O)[C@H](CC(=O)O)NC(=O)CNC(=O)[C@H](CC(C)C)NC(=O)[C@H](C)NC(=O)[C@H](CCCCN)NC(=O)[C@H](CC(C)C)NC(=O)[C@H](CCCNC(=N)N)NC(=O)[C@H](C)NC(=O)[C@H](C)NC(=O)[C@@H](NC(=O)[C@H](CC(C)C)NC(=O)[C@H](CCC(N)=O)NC(=O)[C@H](C)NC(=O)[C@H](C)NC(=O)[C@H](CO)NC(C)=O)[C@@H](C)O)[C@@H](C)O)C(=O)N[C@@H](Cc1c[nH]c2ccccc12)C(N)=O", "note": "[HRK-wt, reference compound]", "values": [
      {"measurement": "IC50", "setting": "MCL-1 [1]", "result": "2.7 ± 0.3", "unit": "µM"},
      {"measurement": "IC50 ratio MCL-1 : BCL-xL (selectivity index)", "setting": "MCL-1 [2]", "result": 1.2}
    ]}
  ]
}
